The numbers were not newly measured in publication PMC10917278, “Structural insights into the modulation Of SOD1 aggregation By a fungal metabolite Phialomustin-B: Therapeutic potential in ALS” (PLOS ONE, 2024), which cites them from elsewhere.

Each structure is given as a SMILES string.

For the data set, the system named is ALS patients. Particulars: cited from earlier work.

Turning to `Nc1nc2ccc(OC(F)(F)F)cc2s1` [Riluzole], the “prolongation of survival duration” value is recorded as “approximately three”.
